Values of other authors in article PMC4778845.

Biological target: HAP
Conditions: cited from earlier work

Substance: alpha-bungarotoxin (from UniProt P60615)
- Kd: 2 nM
